Assay results published in publication PMC11571031 (Protein Science : A Publication of the Protein Society, 2024).

Columns and labels:
Assay in all cases: purified protein
Details in all cases: pH 7.0; 37.0 °C
COC(=O)c1cc(O)c(O)c(O)c1 = tested on: COC(=O)c1cc(O)c(O)c(O)c1
[1] = tested on: O=C(O[C@@H]1Cc2c(O)cc(O)cc2O[C@@H]1c1cc(O)c(O)c(O)c1)c1cc(O)c(O)c(O)c1
[2] = tested on: O=C(O[C@@H]1O[C@H](CO)[C@@H](O)[C@H](O)[C@H]1O)c1cc(O)c(O)c(O)c1

With (Clostridium butyricum) the Km (COC(=O)c1cc(O)c(O)c(O)c1) was 3000 ± 470 µM, the kcat/Km (COC(=O)c1cc(O)c(O)c(O)c1) was 69300 M⁻¹ s⁻¹ and the Km [1] was 2280 ± 710 µM. For the same substance, the kcat/Km [1] was 162000 M⁻¹ s⁻¹, the Km [2] was 1340 ± 370 µM and the kcat/Km [2] was 52100 M⁻¹ s⁻¹.
